{"sequences": {"note": "Chains of the proteins cited; added tags and fusions are not shown. Residues count along the entry.", "UniProt P14174, 2-115 limits assumed": "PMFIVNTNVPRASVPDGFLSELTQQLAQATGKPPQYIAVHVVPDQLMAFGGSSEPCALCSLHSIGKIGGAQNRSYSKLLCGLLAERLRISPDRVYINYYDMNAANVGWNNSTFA"}, "source": "patent US20220144838A1", "about": "“Compounds as Inhibitors of Macrophage Migration Inhibitory Factor” (NANJING IMMUNOPHAGE BIOTECH CO., LTD., priority 2019, published 2022)", "biological_target": "MIF (Homo sapiens, UniProt P14174)", "test": "MIF tautomerase assay using pHPP as substrate", "settings": "inhibition of the MIF enzyme in vitro; mean of multiple test results", "method": "Tautomerase Assay Using pHPP as Substrate\nThis assay measured MIF's tautomerase activity in a cell-free system and was based on the determination of initial rates of the MIF-catalyzed conversion of the ketonic into the enolic tautomer of pHPP. This was achieved by spectrophotometric quantification of the complex between borate and the product of the reaction (enolic pHPP). The substrate was prepared by conversion of the enolic pHPP into its ketonic form. To achieve this, 0.5 M pHPP in methanol was diluted 10-fold with 50 mM sodium acetate buffer at pH 6.0, and then the suspension was shaken for 24 h at room temperature in darkness, and finally stored at 4° C. for not more than 1 week, with 5 min sonication being recommended before use.\nAssays were performed in small-volume clear-bottom black 96 or 384-well polystyrene plates (Greiner Bio-One). First, 2 μL of the enzyme solution containing 6 nM of MIF in DPBS, 0.025% w/v BSA, and 300 μM CHAPS was dispensed onto sample and negative control wells using Multidrop Combi with metallic tip cassettes (Thermo Fisher Scientific) previously treated with Sigmacote. Then, 2 μL of the same buffer without MIF was dispensed onto positive control wells. […] Then, the plate was read in an EnVision. […] Initial rates were calculated for each well as the slope of the absorbance progress curve. […]", "data": [{"molecule": "COc1nc(Cl)ccc1-n1cnc2c(N)nc(N3CCN(c4ccc(O)cc4)CC3)nc21", "values": [{"measurement": "Tautomerase Inhibition pIC50", "result": "B (B means 5.01 to 6)"}]}]}
